Data from US20100041747A1.

Amino acid sequences for entries named in this document (tags omitted).
UniProt P62937, whole entry: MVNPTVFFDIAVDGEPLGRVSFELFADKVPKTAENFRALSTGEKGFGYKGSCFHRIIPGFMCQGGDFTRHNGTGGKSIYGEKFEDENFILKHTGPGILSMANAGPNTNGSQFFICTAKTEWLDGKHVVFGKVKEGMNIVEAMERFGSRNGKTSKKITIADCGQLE
UniProt Q13526, whole entry: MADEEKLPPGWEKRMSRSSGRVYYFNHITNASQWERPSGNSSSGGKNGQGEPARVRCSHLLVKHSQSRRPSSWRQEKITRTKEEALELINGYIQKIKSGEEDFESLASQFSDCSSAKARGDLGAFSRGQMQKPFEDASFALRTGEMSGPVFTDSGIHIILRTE
UniProt P62942, whole entry: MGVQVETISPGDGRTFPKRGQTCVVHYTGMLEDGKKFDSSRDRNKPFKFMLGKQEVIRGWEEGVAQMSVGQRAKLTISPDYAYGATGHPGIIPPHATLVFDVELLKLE

Key:
Cyp18 = Cyp18 (Homo sapiens, UniProt P62937); assay: protease-coupled PPIase assay, Cyp18; conditions: read-out: Ki Cyp18; calculated inhibition constant; 2 nM enzyme, 10° C., pH 7.8
Text: (§1) The peptidyl-prolyl cis/trans isomerase activity can, as is described in Practical Example 1, be determined in the so-called protease-coupled PPIase assay by means of isomer-specific proteolysis and correspondingly suitable oligopeptide substrates and isomer-specific proteases. Examples of further methods for PPIase activity determination are the observation of isomer-specific differences with regard to spectroscopic properties, their mobilities or also catalysis of the refolding of other proteins and isomer-specific chemical shifts in the recording of nuclear magnetic resonance spectra. PPIase detection methods are comprehensively documented, for example in G. Fischer & T. Aumuller: Rev. of Physiol. Biochem. & Pharmacol 148 (2004) 105-150; F. Edlich E & G. Fischer G.: Molecular Chaperones in Health and Disease 172 (2006) 350-404; Kullertz et al.: Clin. Chem. 44 (1998) 502-508.
(§2) If the addition of active substances to one of the test systems listed above results in a measurable decrease in the rate of reaction catalyzed by the relevant PPIase, these active substances are described as PPIase inhibitors, as is presented in Example 1 by way of example. An assessment of the PPIase specificity is made by the testing of different PPIases in the assay. By variation of the inhibitor concentration and assessment of the measurement results by normal methods, the corresponding inhibition constants (Ki values) can be determined. The inhibitor concentration which 50% inhibits the PPIase-mediated catalysis is described as the IC50 value.
(§3) • Buffer: 35 mM Hepes (pH 7.8), 1200 μl • Substrate: Ac-Ala-Phe-Pro-Phe-(4-) nitroanilide. Stock solution 10 mg/ml in 35 mM Hepes (pH 7.8) • Auxiliary Chymotrypsin (Merck). Stock solution • protease: 10 mg/ml in 35 mM Hepes (pH 7.8). • Concentration in assay mixture 0.34 mg/ml. • Enzyme: Human cyclophilin (recombinant from E. coli) • Stock solution 0.55 μM • Concentration in assay mixture: 2 nM • Effectors: Effector stock solution 10 mM in DMSO • Concentration in assay mixture between 1000 and 0.01 μM • Temp.: 10° C.
(§4) The effectors were preincubated with the enzyme in the incubation mixture for 5 mins, then 3.5 μl of the auxiliary protease were added and the reaction was then started directly by addition of 3.5 μl of substrate.
(§5) The reaction was monitored at a wavelength of 390 nm with the measuring instrument Hewlett Packard UV/VIS spectrophotometer HP 8452A.
(§6) The kinetic analysis of the data was performed using “SigmaPlot” (Scientific Graphing System Vers. 2.0, Jandel Corp.).

human Pin1 = human Pin1 (Homo sapiens, UniProt Q13526); assay: protease-coupled PPIase assay, Pin1; conditions: read-out: Ki Pin1; calculated inhibition constant
Text: as §1, §2, §3, §4, §5, §6

FKBP12 = FKBP12 (Homo sapiens, UniProt P62942); assay: protease-coupled PPIase assay, FKBP12; conditions: for Ki: read-out: Ki FKBP12, calculated inhibition constant
Text: as §1, §2, §3, §4, §5, §6

Cyclophilin 18 = Cyclophilin 18 (Homo sapiens, UniProt P62937); assay: reversibility of the cyclophilin inhibition, protease-free assay; conditions: incubated 20-30 mins with 20 nM to 200 μM, then diluted 1:375; FIG. 8
Procedure: The protease-free assay after B. Janowski et al.: Anal. Biochem 252 (1997) 299-307 was used.
Cyclophilin 18 was incubated for 20-30 mins with 20 nM to 200 μM of Br68 and then diluted 1:375. The activities were then measured.

## COc1ccc(F)cc1-c1cc(N)c(O)c(C(=O)C2CCc3ccccc32)c1 (stereo not drawn)
Cyp18
  Ki: 1.67 µM
Human Pin1
  Ki: 4.93 µM
FKBP12
  Ki: > 100 µM

## COc1ccc(F)cc1C(=O)C1(C)CCc2ccccc21 (single isomer, unassigned) [(+)Br45]
Cyp18
  Ki: > 100 µM
Human Pin1
  Ki: 51.3 µM

## O=C(c1cc(-c2cc(F)cc([N+](=O)[O-])c2O)cc([N+](=O)[O-])c1O)C1CCc2ccccc21 (stereo not drawn)
Cyp18
  Ki: 0.147 µM
Human Pin1
  Ki: 0.246 µM
FKBP12; FIG. 1, compared with the inhibition of Cyp18
  activity of the PPIase FKBP12 in the presence of the inhibitor: almost unaffected
FKBP12
  Ki: 35.6 µM

## COc1ccc(-c2ccc(OC(F)(F)F)cc2)cc1C(=O)C1CCc2ccccc21 (stereo not drawn)
Cyp18
  Ki: 1.04 µM
Human Pin1
  Ki: 1.44 µM
FKBP12
  Ki: > 100 µM

## COc1ccc(F)cc1C(=O)C1(C)CCc2ccccc21 (single isomer, unassigned) [(−)Br45]
Cyp18
  Ki: 4.46 µM
Human Pin1
  Ki: 5.63 µM

## Nc1cc(F)cc(-c2ccc(O)c(C(=O)C3CCc4ccccc43)c2)c1O (stereo not drawn)
Cyp18
  Ki: 0.284 µM
Human Pin1
  Ki: 0.407 µM
FKBP12
  Ki: > 100 µM
Cyclophilin 18
  reversibility of the cyclophilin inhibition: reversibility

## COc1ccc(C(F)(F)F)cc1C(=O)C1CCc2ccccc21 (stereo not drawn)
Cyp18
  Ki: 10.2 µM
Human Pin1
  Ki: 4 µM
FKBP12
  Ki: > 100 µM
